Data as given in patent US6723733B2, “Sulfonamide and carbamide derivatives of 6(5H)phenanthridinones and their uses” (Guilford Pharmaceuticals, Inc., priority 2000, dated 2004).
pIC50: −log10 of the molar value.

Protein sequences, listed by entry. Tags and fused reporters are not part of them.
UniProt P09874, whole entry: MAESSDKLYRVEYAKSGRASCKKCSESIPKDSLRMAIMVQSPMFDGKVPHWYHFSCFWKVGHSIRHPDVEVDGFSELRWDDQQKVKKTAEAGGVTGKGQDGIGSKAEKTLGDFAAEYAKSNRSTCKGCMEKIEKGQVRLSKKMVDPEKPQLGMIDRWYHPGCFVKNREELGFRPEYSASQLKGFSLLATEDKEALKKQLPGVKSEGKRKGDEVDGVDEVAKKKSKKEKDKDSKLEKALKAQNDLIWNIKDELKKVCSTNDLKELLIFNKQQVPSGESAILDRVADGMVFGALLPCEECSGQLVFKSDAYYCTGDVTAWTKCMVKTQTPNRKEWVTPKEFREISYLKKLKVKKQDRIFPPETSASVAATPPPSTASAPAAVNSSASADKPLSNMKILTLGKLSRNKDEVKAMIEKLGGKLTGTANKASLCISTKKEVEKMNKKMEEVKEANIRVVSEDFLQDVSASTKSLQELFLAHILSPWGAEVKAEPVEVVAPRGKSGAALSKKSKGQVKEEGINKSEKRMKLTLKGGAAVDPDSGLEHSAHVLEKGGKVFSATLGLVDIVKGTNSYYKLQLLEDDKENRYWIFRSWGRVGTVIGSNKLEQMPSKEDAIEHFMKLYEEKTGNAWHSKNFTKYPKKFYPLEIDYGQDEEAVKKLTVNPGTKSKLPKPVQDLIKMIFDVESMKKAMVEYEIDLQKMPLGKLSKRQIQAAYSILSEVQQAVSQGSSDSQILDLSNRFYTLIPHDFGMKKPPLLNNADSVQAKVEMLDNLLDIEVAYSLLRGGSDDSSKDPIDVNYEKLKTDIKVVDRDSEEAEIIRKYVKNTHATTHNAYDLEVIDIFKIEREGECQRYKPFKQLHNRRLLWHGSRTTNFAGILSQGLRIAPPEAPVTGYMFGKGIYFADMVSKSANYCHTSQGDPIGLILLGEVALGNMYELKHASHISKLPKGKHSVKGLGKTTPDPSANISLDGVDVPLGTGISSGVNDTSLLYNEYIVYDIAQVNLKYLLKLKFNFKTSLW

Target: T1, purified recombinant human PARP (Homo sapiens, UniProt P09874)
T1 construct: purchased Trevigan (Gaithersburg, Md.)
Assay: PARP enzyme assay (IC50), [3H]NAD incorporation
Type: biochemical
Details: approximate IC50 values; 25° C., 15 minutes

| pIC50 | Compound |
| --- | --- |
| 7.68 | O=C(O)c1ccc2c(c1)[nH]c(=O)c1cc(F)ccc12 [Compound 49] |
| 7.36 | Cc1cccc2c(=O)[nH]c3cc(C(F)(F)F)c(N)cc3c12 [Compound 46] |
